The assay has as its system Sodium Channel, Site 2. Type of assay: binding, Wistar Rat.

As to `Nc1nnc(-c2cccc(Cl)c2Cl)c(N)n1` [CEN-1, Lamotrigine, reference compound], the “[3H]BTX-B binding % inhibition (@ 10 μM)” value is given as −28%.

Values taken from patent US8691818B2, “Cyclic triazo and diazo sodium channel blockers” (University Of Greenwich, priority 2008, dated 2014).
